These compounds were tested against Transient receptor potential cation channel subfamily A member 1 (Rattus norvegicus, UniProt Q6RI86) (assay: Agonist activity at TRPA1 channel in rat DRG neurons assessed as increase in intracellular calcium influx).

Chains of the proteins cited; added tags and fusions are not shown.
UniProt Q6RI86, whole entry, looked up: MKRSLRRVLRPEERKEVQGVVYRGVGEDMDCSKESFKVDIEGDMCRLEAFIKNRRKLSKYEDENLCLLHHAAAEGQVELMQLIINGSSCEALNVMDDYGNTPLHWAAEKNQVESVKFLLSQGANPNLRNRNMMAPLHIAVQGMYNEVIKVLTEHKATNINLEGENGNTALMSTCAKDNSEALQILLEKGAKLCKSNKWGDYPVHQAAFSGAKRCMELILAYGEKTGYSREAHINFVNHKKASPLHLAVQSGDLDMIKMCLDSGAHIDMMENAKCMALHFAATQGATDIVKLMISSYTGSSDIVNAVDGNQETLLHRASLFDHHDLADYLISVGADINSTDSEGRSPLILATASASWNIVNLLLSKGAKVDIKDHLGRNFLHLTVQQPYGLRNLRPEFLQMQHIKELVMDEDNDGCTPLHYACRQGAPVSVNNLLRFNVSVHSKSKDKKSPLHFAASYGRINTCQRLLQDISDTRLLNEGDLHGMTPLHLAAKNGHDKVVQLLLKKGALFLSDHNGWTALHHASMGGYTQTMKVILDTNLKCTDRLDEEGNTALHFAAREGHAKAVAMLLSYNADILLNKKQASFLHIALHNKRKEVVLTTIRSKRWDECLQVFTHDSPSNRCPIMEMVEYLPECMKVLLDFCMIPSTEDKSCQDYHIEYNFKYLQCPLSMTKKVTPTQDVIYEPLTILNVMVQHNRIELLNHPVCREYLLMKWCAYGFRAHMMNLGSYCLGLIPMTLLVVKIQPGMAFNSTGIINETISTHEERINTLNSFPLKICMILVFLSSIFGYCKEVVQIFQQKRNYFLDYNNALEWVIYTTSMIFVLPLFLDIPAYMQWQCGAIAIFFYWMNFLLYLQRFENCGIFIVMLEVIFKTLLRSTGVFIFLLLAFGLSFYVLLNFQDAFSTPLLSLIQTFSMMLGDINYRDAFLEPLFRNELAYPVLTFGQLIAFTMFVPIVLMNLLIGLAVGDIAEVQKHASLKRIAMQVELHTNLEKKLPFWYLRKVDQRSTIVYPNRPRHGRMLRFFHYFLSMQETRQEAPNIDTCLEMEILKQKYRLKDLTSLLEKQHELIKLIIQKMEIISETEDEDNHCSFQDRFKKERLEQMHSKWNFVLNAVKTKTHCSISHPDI
UniProt O75762, whole entry, looked up: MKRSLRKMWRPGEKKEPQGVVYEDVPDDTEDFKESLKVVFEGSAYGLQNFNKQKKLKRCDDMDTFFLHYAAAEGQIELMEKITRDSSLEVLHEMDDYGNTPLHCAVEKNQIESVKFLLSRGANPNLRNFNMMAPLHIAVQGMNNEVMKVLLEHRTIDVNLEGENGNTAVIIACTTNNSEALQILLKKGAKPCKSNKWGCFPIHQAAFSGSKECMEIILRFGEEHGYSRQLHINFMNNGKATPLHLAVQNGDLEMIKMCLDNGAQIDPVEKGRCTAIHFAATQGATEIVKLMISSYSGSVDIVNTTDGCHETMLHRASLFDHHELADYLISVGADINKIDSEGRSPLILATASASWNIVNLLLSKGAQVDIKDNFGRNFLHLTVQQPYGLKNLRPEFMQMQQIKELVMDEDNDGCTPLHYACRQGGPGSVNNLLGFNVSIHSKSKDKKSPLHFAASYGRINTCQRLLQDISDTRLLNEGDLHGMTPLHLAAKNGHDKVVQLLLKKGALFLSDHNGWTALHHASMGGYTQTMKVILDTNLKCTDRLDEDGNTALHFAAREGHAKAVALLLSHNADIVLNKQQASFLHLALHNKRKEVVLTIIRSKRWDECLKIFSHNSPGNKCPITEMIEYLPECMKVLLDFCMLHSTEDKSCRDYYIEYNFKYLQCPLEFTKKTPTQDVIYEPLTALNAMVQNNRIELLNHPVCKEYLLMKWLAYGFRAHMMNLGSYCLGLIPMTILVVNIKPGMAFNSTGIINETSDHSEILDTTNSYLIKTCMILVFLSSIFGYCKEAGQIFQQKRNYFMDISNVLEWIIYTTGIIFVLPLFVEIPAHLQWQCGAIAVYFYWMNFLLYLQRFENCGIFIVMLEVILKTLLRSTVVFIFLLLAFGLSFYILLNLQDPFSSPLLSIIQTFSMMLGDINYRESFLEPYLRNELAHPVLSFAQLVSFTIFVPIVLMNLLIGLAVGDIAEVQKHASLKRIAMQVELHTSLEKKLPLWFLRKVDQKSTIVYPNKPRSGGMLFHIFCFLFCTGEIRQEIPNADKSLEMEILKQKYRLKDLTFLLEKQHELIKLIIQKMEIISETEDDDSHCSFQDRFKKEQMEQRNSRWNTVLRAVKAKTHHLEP

SMILES	EC50 [nM]
Cc1ccc(C(=O)NC(Sc2ccc([N+](=O)[O-])cc2)C(Cl)(Cl)Cl)cc1 (configuration not stated)	4
COc1ccc(C(=O)NC(Sc2ccc(Cl)cc2)C(Cl)(Cl)Cl)cc1 (configuration not stated)	115
CC(=O)SC(NC(=O)c1ccc(Cl)cc1)C(Cl)(Cl)Cl (configuration not stated)	15
Cc1ccc(C(=O)NC(Sc2ccc(Cl)cc2)C(Cl)(Cl)Cl)cc1 (configuration not stated)	3.8
O=C(NC(Sc1ccc(Cl)cc1)C(Cl)(Cl)Cl)c1ccccc1 (configuration not stated)	66

Each compound was assayed against Transient receptor potential cation channel subfamily A member 1 (Homo sapiens, UniProt O75762) (assay: Antagonist activity at human TRPA1 channel assessed as inhibition of allyl isothiocyanate-induced intracellular calcium influx).

SMILES	IC50 [nM]
CC(=O)SC(NC(=O)c1ccc(Cl)cc1)C(Cl)(Cl)Cl (configuration not stated)	1100
Cc1ccc(C(=O)NC(Sc2ccc(Cl)cc2)C(Cl)(Cl)Cl)cc1 (configuration not stated)	1400

From ChEMBL document CHEMBL1155439, “Transient receptor potential ankyrin 1 (TRPA1) channel as emerging target for novel analgesics and anti-inflammatory agents” (J Med Chem, 2010)
